Earlier results in US20240377385A1, “METHODS AND COMPOSITIONS OF MATTER FOR TREATING CANCER AND PREDICTING RESPONSE TO THERAPY” (ICCA INC., priority 2023, published 2024).

Tested on: metastatic colorectal cancer
Conditions: cetuximab added to a protocol of bevacizumab and chemotherapy; cited from earlier work

cetuximab
survival: decreased survival
